Only a part of the results on these compounds is given; other tests are left out.
Test system: human hepatic cell line (HepG2 ATCC HB-8065)
Assay: Human cell viability assay (CellTiter-Glo)
Details: for toxicity against HepG2 human hepatic cell line (in words): HepG2, summary statement in text; for IC50 (μg/mL) HepG2: HepG2 cell viability, 24 h incubation with compound, CellTiter-Glo

## COc1ncc2ccc(=O)n(CCN3CC[C@@H]4[C@H](C3)OC(=O)N4c3ccc4c(n3)NC(=O)CO4)c2n1 (relative stereo)
  toxicity against HepG2 human hepatic cell line (in words): no detectable toxicity
  IC50 (μg/mL) HepG2: A (an IC50 of over 100 is assigned the letter A)

## COc1ccc2ccc(=O)n(CCN3CC[C@@H]4[C@H](C3)OC(=O)N4c3ccc4c(n3)NC(=O)CO4)c2n1 (relative stereo)
  toxicity against HepG2 human hepatic cell line (in words): no detectable toxicity
  IC50 (μg/mL) HepG2: A (an IC50 of over 100 is assigned the letter A)

## N#Cc1ccc2ccc(=O)n(CCN3CC[C@@H]4[C@H](C3)OC(=O)N4c3ccc4c(n3)NC(=O)CO4)c2c1 (relative stereo)
  toxicity against HepG2 human hepatic cell line (in words): acceptable level of hepatic toxicity
  IC50 (μg/mL) HepG2: B (an IC50 of from 10 to 100 is assigned the letter B)

From patent US20190040083A1 (priority 2016, published 2019)
